The term Ki denotes a dissociation constant, usually derived from enzyme kinetics or from competition with a known ligand.

By UniProt entry, the sequences of proteins in these tests, tags left out.
UniProt P79350, whole entry: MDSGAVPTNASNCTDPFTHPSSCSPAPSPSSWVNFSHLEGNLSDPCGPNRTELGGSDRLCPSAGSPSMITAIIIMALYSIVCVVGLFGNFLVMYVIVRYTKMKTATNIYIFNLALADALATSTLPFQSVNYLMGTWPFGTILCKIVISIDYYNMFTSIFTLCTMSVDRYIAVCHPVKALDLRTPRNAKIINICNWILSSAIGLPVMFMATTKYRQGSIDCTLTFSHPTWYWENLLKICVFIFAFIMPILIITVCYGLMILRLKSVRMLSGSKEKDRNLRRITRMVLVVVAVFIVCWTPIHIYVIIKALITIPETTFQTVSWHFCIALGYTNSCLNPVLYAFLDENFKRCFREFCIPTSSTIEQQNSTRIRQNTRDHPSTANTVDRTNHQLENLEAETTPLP

This test deals with Mu-type opioid receptor (Bos taurus, UniProt P79350).

Several values for one entry are separate records, joined by “and”; a condition that tells them apart may be missing. Equal values may be shown once.

For `CN1CC[C@]23c4c5ccc(O)c4O[C@H]2[C@@H](O)CCC3[C@H]1C5` (stereo partly specified) [DIHYDROMORPHINE], the inhibitory constant (Ki) is 1.7 nM and 13.2 nM.

Source of the values: BindingDB's records for PubMed 6248635 (Stanford University, 1980).
